# Measured affinities in a library of Ab-91 heavy chain variants

The target is the same throughout: PDVDLGDISGINAS, from the HR2 region of SARS-CoV-2 spike.

The variants keep the light chain, the linker and the frameworks of Ab-91 (scFv order VL, a 15-residue (Gly4Ser)3 linker, VH).
VL: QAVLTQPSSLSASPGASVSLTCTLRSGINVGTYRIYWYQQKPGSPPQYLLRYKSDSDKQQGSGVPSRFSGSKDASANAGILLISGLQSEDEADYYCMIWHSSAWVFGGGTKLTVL
VH: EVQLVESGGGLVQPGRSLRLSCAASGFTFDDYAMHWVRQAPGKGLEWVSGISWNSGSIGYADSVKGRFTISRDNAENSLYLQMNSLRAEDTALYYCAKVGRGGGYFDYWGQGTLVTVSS

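The library (AAYL51) carries one to three amino acid substitutions per variant, with no insertions or deletions. Affinity was read by AlphaSeq, a pooled yeast mating assay with surface-displayed partners. Binding brings cells together so that they mate, and sequencing counts the barcode pairs among the diploids. Scores were corrected for input abundance and mapped to Kd with protein pairs of known affinity run in the same pool. The assay was run in three technical replicates.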

Positions count from residue 1 of the parent VH; F29R puts R in place of F. The read-out is the apparent dissociation constant on a log10 scale (nM): the lower, the stronger. "ND" means that the variant was in the library but no mating with the target was seen in that replicate; the authors take this as a sign of poor binding, and no number exists. Parent in this assay: reference entry 1.86, copy in this library 0.88.

The variant F29R Y105K F106Q gave ND, ND, ND (controls 0 of 9).
The variant G26M A33F S57D gave ND, ND, ND (controls 0 of 9).
The variant I51Y G100T gave ND, ND, ND (controls 2 of 9).
The variant D62H V99Y G103C gave 4.44, 4.24, ND (controls 3 of 9).
The variant S57I F106D D107K gave ND, ND, ND (controls 3 of 9).
The variant Y60W D62I gave ND, ND, ND (controls 0 of 9).
The variant A61L V64W Y108I gave ND, ND, ND (controls 1 of 9).
The variant S63L K65A gave 3.58, ND, ND (controls 3 of 9).
The variant T28A gave 3.37, 4.29, 3.55 (controls 0 of 9).
The variant T28N V99I G100N gave ND, ND, ND (controls 1 of 9).
The variant S52V Y60H D107L gave 4.75, 6.56, ND (controls 6 of 9).
The variant I58A S63Q gave 1.55, 1.43, 1.29 (controls 0 of 9).
The variant F29E S52T G102Q gave 4.23, ND, 4.58 (controls 1 of 9).
The variant W53L G59M Y105L gave ND, ND, 1.91 (controls 1 of 9).
The variant M34R I51T G56D gave ND, ND, ND (controls 0 of 9).
The variant T28Q D31R I58Q gave 0.53, 0.43, -0.22 (controls 4 of 9).
The variant D31H D62T G102C gave 1.13, 1.27, 0.81 (controls 0 of 9).
The variant M34K G50Y I58L gave ND, ND, ND (controls 0 of 9).
The variant Y32Q gave 5.09, 5.67, ND (controls 1 of 9).
The variant G26S G102E Y108W gave ND, ND, ND (controls 0 of 9).
The variant G56T G103I Y105R gave 5.47, 4.59, ND (controls 3 of 9).
The variant T28N I58W G104F gave ND, ND, ND (controls 1 of 9).
The variant S55I gave ND, 4.74, ND (controls 2 of 9).
The variant F27L G50W V64D gave ND, ND, ND (controls 0 of 9).
The variant G56S G100S F106P gave ND, ND, ND (controls 4 of 9).
The variant D31K G50Y I51V gave ND, ND, ND (controls 1 of 9).
The variant F29H A33S G56H gave 3.75, ND, ND (controls 1 of 9).
The variant W53T V99F F106T gave 1.18, 1.61, 0.89 (controls 5 of 9).
The variant W53Y G56F V99W gave 1.18, 3.58, 2.02 (controls 0 of 9).
The variant T28N I51C G59W gave ND, ND, ND (controls 0 of 9).
The variant Y32A H35E G104L gave 4.76, 4.39, 4.58 (controls 7 of 9).
The variant S52D N54T G100Y gave ND, ND, ND (controls 2 of 9).
The variant W53F R101H Y105P gave 3.93, 4.32, 5.69 (controls 7 of 9).
The variant I58F F106Q gave 4.59, ND, ND (controls 3 of 9).
The variant N54W Y105K F106C gave ND, ND, ND (controls 0 of 9).
The variant S52E N54Q V64E gave ND, ND, ND (controls 0 of 9).
The variant F27T G56H S57N gave ND, ND, ND (controls 0 of 9).
The variant G56A Y105M gave 2.43, 2.32, 2.00 (controls 2 of 9).

From the list, the first 6 with no signal in any replicate:

| changes | replicates, log10 nM | signal with controls |
|---|---|---|
| F29R Y105K F106Q | ND, ND, ND | 0 of 9 |
| G26M A33F S57D | ND, ND, ND | 0 of 9 |
| I51Y G100T | ND, ND, ND | 2 of 9 |
| S57I F106D D107K | ND, ND, ND | 3 of 9 |
| Y60W D62I | ND, ND, ND | 0 of 9 |
| A61L V64W Y108I | ND, ND, ND | 1 of 9 |

Three control strains display no target. For library AAYL51, 21% of the pairings with them gave a signal, with a median of 4.54 and one signal in twenty below 3.26, so weak values seen in few replicates may be background. Also given: how often the same scFv was detected with the empty control strains.

Source: Engelhart et al. 2022 (doi:10.1038/s41597-022-01779-4), MIT Lincoln Laboratory and A-Alpha Bio; data file from the FLAb repository.